HCMV UL50-53 inh = inhibitors of HCMV UL50-UL53 interaction, biochemical, HTRF; normalized percent inhibition; inhibition, % (no concentration beside the values); 0.15% of 190,000 active; AID 1918969, 2023; in the data active = inhibition above about 27%, passing the limit was not always enough
GIV-Gai inh = blocks GIV peptide binding to rat Galpha-i3; P08753; Galpha-i3/FITC-GIV peptide fluorescence polarization, 90 min; stronger effect = lower value; scaled: aluminum fluoride 0%, vehicle 100%; percent of control (FP), % (no concentration beside the values); 210,000 tested, 0.42% active; AID 1224905;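 active = replicate mean at 85% of control or lower, very high polarization wells dropped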;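 also: wells of about 15 µL received 100 nL stock; the first replicate is given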
* hit, by the source's call; / = not tested or not shown. The list is not random: actives were taken first. Their share in the collection is about 0.43%.

SMILES	HCMV UL50-53 inh	GIV-Gai inh
Cc1ccc(S(=O)(=O)N2CCN(c3cc(=O)n4nc(-c5ccccc5)sc4n3)CC2)cc1	34	104
O=C(Nc1nc2ccc(Br)cc2s1)c1ccc(N2C(=O)CCC2=O)cc1	2	/
Cc1ccc(-c2noc(CS(=O)(=O)c3cc(C)c(C)cc3C)n2)cc1	/	104
COc1ccc(-c2nc(SCC(=O)N3CCCc4ccccc43)c3c(=O)n(C)c(=O)n(C)c3n2)cc1	5	105
CC(=O)Oc1ccc(C(=O)Nc2cc(-c3nc4ccccc4[nH]3)ccc2C)cc1	-20	106
CCCc1[nH]n(-c2ccccc2)c(=O)c1C(C)=NCCOC	2	107
CC(=O)NCCCc1[nH]n(-c2ccccc2)c(=O)c1NC(=O)c1ccccc1	65*	/
Cc1ccnc(NS(=O)(=O)c2ccc(C3CCCCC3)cc2)c1	-1	105
COc1cccc(Cn2ccn(Cc3ccccc3)c(=O)c2=O)c1	-28	103
CCCC(=O)Nc1cccn(Cc2cccc(OC)c2)c1=O	50*	97
CC(C)(C)C(=O)Nc1ccc(-c2nc3ccccc3s2)c(O)c1	-13	/
CC(C)(C)C(=O)Nc1ccc2c(c1)C(=O)C(=O)c1ccccc1-2	122*	/
Cc1nc2sc(C(=O)N(C3=NC(C)CS3)c3ccc(Cl)cc3)c(C)c2c(=O)[nH]1 (stereo unspecified)	-42	/
O=c1[nH]c2ccccc2c2ncnc(Nc3ccc(OC(F)(F)F)cc3)c12	-11	/
O=C(OCC(=O)N1CCCC1=O)c1ccc2ncsc2c1	10	/
CCOC(=O)c1ccc2c(c1)N(CCCS(=O)(=O)O)/C(=C/C=C/c1n(CCCS(=O)(=O)[O-])c3cc(C(=O)OCC)ccc3[n+]1CC)N2CC	/	-62*
CCOC(=O)c1ccc2c(c1)n(CCCS(=O)(=O)[O-])c(/C=C/C=C1\N(CC)c3cc(Cl)c(Cl)cc3N1CCOc1ccccc1)[n+]2CC	/	112
CCOc1cccc(/C=C2\SC(=S)N(CC)C2=O)c1O	-21	/
CCOc1cc(/C=C2\SC(=S)N(CC)C2=O)cc(Cl)c1O	-19	-15*
CC1CCCN(Cc2c(O)ccc3cc(-c4nc5ccccc5s4)c(=O)oc23)C1 (stereo unspecified)	-82	-32*
CCOc1cccc2cc(-c3nc4ccccc4s3)c(=O)oc12	/	143
CCN(CC)Cc1c(O)ccc2cc(-c3nc4ccccc4s3)c(=O)oc12	/	-18*
O=c1oc2c(CN3CCCC3)c(O)ccc2cc1-c1ccccc1	/	115
O=C(Nc1ccc(S(=O)(=O)N2CCCCCC2)cc1)c1ccncc1	-10	95
COc1ccc(CCNC(=O)C2c3ccccc3C(=O)N2C2CCCC2)cc1OC (stereo unspecified)	9	102
Cc1ccc(C(=O)N/N=C/c2c[nH]c3ccccc23)cn1	-56	104
Cc1ccc(C(=O)NC2(O)C(=O)c3ccccc3C2=O)cn1	54*	94
Cc1ccc(O)c(C2=Nc3ccccc3N=C(c3ccc(Cl)cc3)C2)c1	-9	106
CN(C)C(=O)NCc1ccc(Cl)cc1	4	108
COCCCNC(=O)CSc1ccc2c3c(cccc13)C(=O)c1ccccc1-2	/	-73*
O=C(CSc1ccc2c3c(cccc13)C(=O)c1ccccc1-2)Nc1ccccc1	/	99
Cc1ccc(N2C(=O)c3sc4nnc(-c5ccccc5)c(=O)n4c3C2=O)cc1	-36	100
CCOc1cc(C2Nc3ccc4ccccc4c3C3=C2C(=O)CC(c2ccccc2)C3)ccc1O (stereo unspecified)	/	111
O=C(Cn1cc(/C=C2\C(=O)NC(=O)N(Cc3ccccc3)C2=O)c2ccccc21)NCc1ccco1	0	-35*
C=CCN1C(=O)NC(=O)/C(=C\c2cn(Cc3ccccc3)c3ccccc23)C1=O	/	21*
C=CCN1C(=O)NC(=O)/C(=C/c2ccccc2OCc2ccc(Cl)cc2)C1=O	82*	117
C=CCN1C(=O)NC(=O)/C(=C/c2ccc(OCc3ccccc3F)c(OCC)c2)C1=O	-13	104
CN1C(=O)/C(=C/c2cn(Cc3ccccc3)c3ccccc23)c2ccccc21	/	104
C=CCN1C(=O)NC(=O)/C(=C/c2ccc(OCc3ccc(Cl)cc3)c(OC)c2)C1=O	-27	109
CN1C(=O)/C(=C/c2cn(CC(=O)NCc3ccco3)c3ccccc23)C(=O)NC1=S	5	105
C=CCN1C(=O)NC(=O)/C(=C/c2cccc(OCc3ccccc3Cl)c2)C1=O	73*	114
CC(=O)Nc1cc(Cl)ccc1OCc1cc(=O)n2c3c(sc2n1)CCCC3	/	111
CN=C1SC(CC(N)=O)C(=O)N1C (stereo unspecified)	/	103
CCOCCOC(=O)COc1ccc2c(=O)c(Oc3cc(C)cc(C)c3)c(C(F)(F)F)oc2c1	-10	98
Cc1ccc(S(=O)(=O)N2CCN(C(=O)c3ccc(Br)o3)CC2)cc1	-17	/
COc1cc(C=C2C(=O)N(C)C(=O)N(C)C2=O)cc(Br)c1OCCOc1ccccc1	-7	106
COc1ccccc1OCCOc1c(Br)cc(C=C2C(=O)N(C)C(=O)N(C)C2=O)cc1OC	77*	106
COc1cc(C=C2C(=O)NC(=S)NC2=O)cc(Cl)c1OCCOc1cccc(C)c1	7	111
CCOc1cc(C=C2C(=O)NC(=O)NC2=O)cc(Br)c1OCCOc1ccccc1	-15	108
COc1cc(C=C2C(=O)NC(=O)NC2=O)cc(Br)c1OCCOc1ccccc1	82*	105
COc1cc(C=C2C(=O)NC(=O)NC2=O)cc(Cl)c1OS(=O)(=O)c1ccccc1	60*	104
CC1CCCN(S(=O)(=O)c2ccc(-c3nnc(C(C)C)o3)o2)C1 (stereo unspecified)	/	105
Cc1ccc(C)c(NC(=O)c2sc(C)nc2C)c1	-16	104
O=c1[nH]c2ccc(NS(=O)(=O)c3cnc[nH]3)cc2s1	-4	99
O=c1nc2sc3[nH]c(=O)sc3cc-2s1	-78	-47*
N#Cc1c(=O)n(O)c2ccccc2[n+]1[O-]	-132	-33*
O=c1c(-c2ccc(Oc3ccccc3)cc2)[n+]([O-])c2ccccc2n1O	-64	116
O=C(O)CCC(=O)N1N=C(c2ccc(Br)cc2)CC1c1ccccc1Cl (stereo unspecified)	-24	106
CC(C)C(=O)Nc1ccc(Cl)cc1C(=O)O	-14	99
CC(C)C(=O)Nc1ccc(N(C)C)cc1C(=O)O	51*	99
Additional results follow:
SMILES	HCMV UL50-53 inh	GIV-Gai inh
CCc1nnc(NC(=O)COc2ccc(Cl)cc2)s1	-28	/
CCOC(=O)N1CCC(Nc2cc(C)c(C#N)c3nc4ccccc4n23)CC1	-20	107
CC(C)CCOc1ccc(C(=O)CCNC(Cc2c[nH]c3ccccc23)C(=O)O)cc1 (stereo unspecified)	/	105
Cn1cccc1/C=C1\CC/C(=C\c2cccn2C)C1=O	/	-75*
Cn1cccc1/C=C1\CCc2ccccc2C1=O	/	144
Cc1csc(=NCC(=O)NCc2ccccc2)n1CC(=O)NCc1ccccc1	-9	/
O=C(NCCO)c1ccc(Nc2nc(-c3ccccc3)c3cc(Cl)ccc3n2)cc1	-14	/
CN(C)/C=C/C=C1/CCc2ccccc2C1=O	-28	-3.8*
CCN(CC)c1ccc(/C=C2\CCc3ccccc3C2=O)cc1	/	253
Cc1ccc(N2CC(C(=O)Nc3cc4c(cc3Sc3ccccc3)n(C)c(=O)n4C)CC2=O)cc1 (stereo unspecified)	-37	100

Filtered by structure: those above with a tert-butyl group (two)
SMILES	HCMV UL50-53 inh	GIV-Gai inh
CC(C)(C)C(=O)Nc1ccc(-c2nc3ccccc3s2)c(O)c1	-13	/
CC(C)(C)C(=O)Nc1ccc2c(c1)C(=O)C(=O)c1ccccc1-2	122*	/

In the list so far, four contain a COOH group.
SMILES	HCMV UL50-53 inh	GIV-Gai inh
O=C(O)CCC(=O)N1N=C(c2ccc(Br)cc2)CC1c1ccccc1Cl (stereo unspecified)	-24	106
CC(C)C(=O)Nc1ccc(Cl)cc1C(=O)O	-14	99
CC(C)C(=O)Nc1ccc(N(C)C)cc1C(=O)O	51*	99
CC(C)CCOc1ccc(C(=O)CCNC(Cc2c[nH]c3ccccc23)C(=O)O)cc1 (stereo unspecified)	/	105

Screening data as filed in PubChem.
